The source of these data is patent publication US12168007B1, “Substituted piperazines as dopamine D3/D2 receptor modulators” (Richter Gedeon Nyrt, priority 2023, dated 2024).

Converted amounts (≈) assume the structure as drawn.

Format in all cases: physicochemical
Data set [1] is described as follows: Kinetic solubility study. Particulars: PBS pH 7.4 with 1% DMSO, aqueous buffer, kinetic from dmso stock; PBS pH = 7.4, 2 hours, RT, 1% DMSO co-solvent; read-out: Kinetic sol. The procedure:
Following shaking of the suspension on an orbital shaker at 300 rpm for 2 hours, the suspension was clarified by vacuum filtration (Multiscreen® Vacuum Manifold; MilliporeSigma). Immediately following the filtration step, […] of the filtrate was transferred into […] of acetonitrile to avoid compound precipitation from the saturated solution. The concentration of the research compound was determined by HPLC-UV-(MS) detection, by using an external standard made from the same batch of research compound.

Data set [2] can be described thus: Thermodynamic solubility study (37° C., 4 hours). The following applies: thermodynamic from solid, footnote ** 24 hours, read-out: Thermodynamic sol. The procedure:
Thermodynamic Solubility Study (37° C., 4 Hours)
The resulted mixtures/oversaturated solutions are shaken at 37° C. for 4 hrs (to the solution equilibrium) and are filtrated on a Millipore MultiSreen Filter Plate (0.45 μm). Concentrations of the filtrates are determined by LC/UV/MS based on a 5-point calibration. (When the solid material dissolved totally in the aqueous test medium the result should be considered as a minimal value.) Results are shown in Table 2.

Data set [3] can be described thus: Thermodynamic solubility study (RT, 24 hours). Particulars: aqueous buffer, thermodynamic from solid, PBS pH = 7.4, 24 hours, read-out: Thermodynamic sol. The protocol:
Concentrations of the filtrates were determined by LC/UV/MS based on a 5-point calibration. (When the solid material dissolved totally in the aqueous test medium the result should be considered as a minimal value.) Results are shown in Table 2.

Take `CNC(=O)N[C@H]1CC[C@H](CCN2CCN(c3cccc(Cl)c3Cl)CC2)CC1` [Ref. Ex. 3, N′-[(1r,4r)-4-{2-[4-(2,3-dichlorophenyl)piperazin-1-yl]ethyl}cyclohexyl]-N-methylurea, reference compound]: the solubility kinetic at 2 h in data set [1] was determined as 0.9 ± 0.1 µM (≈ 0.372 µg/mL). The solubility thermodynamic at 24 h in data set [2] (aqueous buffer, PBS pH = 7.4, 37° C. column) turned out to be 0.3 ± 0.1 µM (≈ 0.124 µg/mL); in data set [2] (fassgf or other biorelevant, SIF pH = 6.8, 37° C. column), 1.9 ± 0.2 µM (≈ 0.785 µg/mL); in data set [3], 0.6 ± 0.1 µM (≈ 0.248 µg/mL).
